Laboratory results published in ChEMBL document CHEMBL4828724 (Eur J Med Chem, 2021).

Amino acid sequences for entries named in this document (tags omitted).
UniProt Q01827, whole entry: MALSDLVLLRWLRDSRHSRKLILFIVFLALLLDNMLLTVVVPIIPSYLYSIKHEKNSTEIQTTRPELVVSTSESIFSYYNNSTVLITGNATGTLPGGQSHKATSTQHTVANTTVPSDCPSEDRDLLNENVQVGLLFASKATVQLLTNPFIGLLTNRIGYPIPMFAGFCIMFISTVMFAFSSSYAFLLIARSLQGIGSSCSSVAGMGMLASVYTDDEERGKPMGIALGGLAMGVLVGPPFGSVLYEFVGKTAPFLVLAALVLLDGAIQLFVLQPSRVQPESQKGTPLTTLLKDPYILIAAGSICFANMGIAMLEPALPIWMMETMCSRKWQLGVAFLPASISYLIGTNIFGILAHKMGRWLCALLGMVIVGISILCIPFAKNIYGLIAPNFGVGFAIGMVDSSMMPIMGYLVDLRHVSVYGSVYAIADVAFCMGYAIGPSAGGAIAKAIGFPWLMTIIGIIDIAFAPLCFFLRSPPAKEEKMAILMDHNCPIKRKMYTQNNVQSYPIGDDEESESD

How the values were obtained:
[1] = biological target: T1, Synaptic vesicular amine transporter (Rattus norvegicus, UniProt Q01827); test: Inhibition of [3H]DTBZ binding to VMAT2 in rat brain incubated for 30 mins by liquid scintillation spectrometry analysis; assay type: tissue-based
[2] = biological target: T1, Synaptic vesicular amine transporter; test: Inhibition of [3H]DA uptake at VMAT2 in rat striatal synaptosome incubated for 10 mins followed by [3H]DA addition and measured after 20 mins by TopCount scintillation counting method; assay type: subcellular, Striatum

## COc1cc2c(cc1OC)C1CC(=O)C(CC(C)C)CN1CC2 (configuration not stated) [TETRABENAZINE]
[1]
  IC50: 70.2 nM
[2]
  IC50: 11 nM
